These results are taken from patent publication US12440528B2, “Methods of treating ovarian cancer with hemp extract” (Ecofibre USA Inc., priority 2021, dated 2025).

In this test the test system is patient derived organoids (PD3D Cell Culture). Nature of the test: Calculated IC50 in PD3D cell culture of the patient derived organoids. It is filed as cell-based, human.

Cetuximab: the “Calculated IC50 PD3D Cell Culture” value is “Not Reached”. Consider “Kadcyla: agent tested on the patient derived organoids”, for which the “Calculated IC50 PD3D Cell Culture” value is “Not Reached”.
